# Source: PubChem BioAssay AID504577 (NMMLSC, 2011)
# This is a selection; strong and weak results do not stand in their true shares. The source made the active and inactive calls. No stated cut-off is given here; in the data, active means response mostly above about 7.3% (no sharp cut-off); inactive means mostly below about 5.4%.
# Experiment: regulators of yeast V-ATPase proton pumping, primary screen, pHLuorin cytosolic pH fluorescence (AID 504577); further: actives read high
# Details: S. cerevisiae, at 10 µM, hits give high values
row,Structure (SMILES),response
1,O=[N+]([O-])c1ccc(-c2cc([N+](=O)[O-])c(O)c([N+](=O)[O-])c2)cc1,inactive: -2.73%
2,COc1cc(C(=O)NCC2(N3CCOCC3)CCCCC2)ccc1OCC(C)C,inactive: -6.37%
3,Cc1ccc2nc3c(c(C)c2c1)CC(C(Cl)Cl)S3 (stereo unspecified),inactive: -2.35%
4,Cc1ccc(OP(=O)(Nc2ccc([N+](=O)[O-])cn2)Oc2ccc(C)cc2)cc1,inactive: 2.66%
5,CCOC(=O)Nc1cccc([As](=O)(O)O)c1,inactive: -0.38%
6,O=[N+]([O-])c1ccc(Nc2ccc(Oc3ccc([N+](=O)[O-])cc3[N+](=O)[O-])cc2)c([N+](=O)[O-])c1,inactive: 0.34%
7,O=P(Nc1ccccn1)(c1cccc2ccccc12)c1cccc2ccccc12,inactive: -0.14%
8,Cc1cc(SC(NC=O)C(Cl)(Cl)Cl)ncn1 (stereo unspecified),inactive: -0.51%
9,CC1CCNP(=O)(N(CCCl)CCCl)O1 (stereo unspecified),inactive: 2.94%
10,CCOC(=O)Nc1ccc([As](=O)(O)O)c(O)c1,inactive: 1.03%
11,O=C(O)C(O)c1ccc(N(CCCl)CCCl)cc1 (stereo unspecified),inactive: -1.19%
12,CCCCOc1ccc(C(=O)NCC2(N3CCCCC3)CCCCC2)cc1OC,inactive: -1.52%
13,Cc1cc(SC(NC(=O)c2ccccc2)C(Cl)(Cl)Cl)nc(C(C)C)n1 (stereo unspecified),inactive: -0.5%
14,COP(=O)(OC)N1CC1c1ccccc1 (stereo unspecified),inactive: -1.06%
15,CCOC(=O)c1ccc(NC(=O)C(C)(CCl)SC)cc1 (stereo unspecified),inactive: 0.89%
16,O=C(OC1CN2CCC1CC2)c1cccc([N+](=O)[O-])c1 (stereo unspecified),inactive: 1.61%
17,CSc1ccc(Nc2c([N+](=O)[O-])cc([N+](=O)[O-])cc2[N+](=O)[O-])cc1,inactive: 0.9%
18,CCC(C)N(CC(C)C)C(=S)SC(NC(C)=O)C(Cl)(Cl)Cl (stereo unspecified),inactive: 6.47%
19,COP1(=S)c2c(C)nn(CCC#N)c2N=C(c2ccc(F)cc2)N1C (stereo unspecified),inactive: 0.73%
20,O=C(COc1ccccc1)OC1CN2CCC1CC2 (stereo unspecified),inactive: 0.36%
21,O=C(Nc1ccncc1[N+](=O)[O-])c1ccc([N+](=O)[O-])cc1[N+](=O)[O-],inactive: 1.16%
22,O=C(O)C(=O)c1ccc(N(CCCl)CCCl)cc1,inactive: 3.39%

row,Structure (SMILES),response
1,Nc1ccc([As](=O)(O)c2ccc(N)cc2)cc1,inactive: -5.39%
2,C[N+]1=C2C=CC=CC=C2SC12C([N+](=O)[O-])=CC([N+](=O)[O-])=C[C-]2[N+](=O)[O-] (stereo unspecified),inactive: -0.28%
3,CCN(/C(=N/P(=O)(N1CCOCC1)N1CCOCC1)N1CCOCC1)c1ccc(OC)cc1,inactive: 2%
4,CC(C)c1nc(Nc2ccccc2)n(P(=O)(N(C)C)N(C)C)n1,inactive: 1%
5,CC(C)=N/N=C(\N)N[N+](=O)[O-],inactive: -1.89%
6,CN(C)C(=O)OCCc1n(C)cc[n+]1C,inactive: -2.42%
7,CC1CCN(C(=O)Oc2c(Cl)cc(Cl)c3cccnc23)CC1,inactive: 3.51%
8,c1cc(-c2nn[nH]n2)ccc1-c1nn[nH]n1,inactive: -0.88%
9,COc1ccc(C2=NCC(CBr)S2)cc1 (stereo unspecified),inactive: 1.5%
10,O=[N+]([O-])c1cccc2n[nH]nc12,inactive: 4.36%
11,CC(=O)N1C2C3N(C(C)=O)C1C1N(C(C)=O)C(C(N1C(C)=O)N3C(C)=O)N2C(C)=O,inactive: -0.47%
12,Cc1ccc(NP(=O)(Oc2ccccc2)Oc2ccccc2)nc1,inactive: 4.03%
13,CCc1nc2c(n1)c1c(non1O)c1c2no[n+]1[O-],inactive: 0.17%
14,O=[N+]([O-])c1cc([N+](=O)[O-])c(CCNc2ccccc2)c([N+](=O)[O-])c1,inactive: 0.55%
15,CC(C)(C)C(=O)NC(Sc1ccncn1)C(Cl)(Cl)Cl (stereo unspecified),inactive: 6.64%
16,O=[N+]([O-])c1ncn(CCn2ncnc2[N+](=O)[O-])n1,inactive: 0.5%
17,COC(=O)C1(C)COP(=O)(Nc2ccccc2)OC1 (stereo unspecified),inactive: -1.94%
18,O=[N+]([O-])c1cccc(NC2=NCC(CBr)S2)c1 (stereo unspecified),inactive: -4.03%
19,O=C(O)CNc1ccc([As](=O)(O)O)cc1,inactive: -2.09%
20,O=P1(N(CCCl)CCCl)OCCCS1 (stereo unspecified),inactive: -1.51%
21,O=C(Nc1cc([As](=O)(O)O)ccc1O)c1ccccc1,inactive: 1.65%
22,CCN(N=Nc1nonc1N)c1nonc1N,inactive: 3.22%

row,Structure (SMILES),response
1,Nc1cccc2ccc([As](=O)(O)O)cc12,inactive: -1.13%
2,CC(=O)Nc1ccc([As](=O)(O)O)cc1,inactive: 3.88%
3,O=C(O)c1ccccc1[As](=O)(O)O,inactive: -5.28%
4,CCCC1OP(N)(=O)OCC1CC (stereo unspecified),inactive: -0.36%
5,O=P(Nc1nc2ccc(Cl)cc2s1)(c1ccccc1)c1ccccc1,inactive: -0.13%
6,CN(C)P(=O)(N(C)C)n1c(Nc2ccccc2)nnc1-c1ccccc1,inactive: 2.47%
7,Cc1cc(SC(NC(=O)c2ccc(F)cc2)C(Cl)(Cl)Cl)ncn1 (stereo unspecified),inactive: -1.23%
8,CCOP(=O)(Nc1ccccc1)OCC,inactive: 0.5%
9,Cc1ccc(NP(=O)(Oc2ccccc2F)Oc2ccccc2F)nc1,inactive: -2.41%
10,CN(C(=O)Cc1ccc(Cl)c(Cl)c1)[C@H]1CCCC[C@@H]1N1CCCC1,inactive: -3.62%
11,Nc1cc(N)c2nonc2c1[N+](=O)[O-],inactive: 2.71%
12,CC(C)CC(=O)NC(Sc1ccc(Cl)cc1)C(Cl)(Cl)Cl (stereo unspecified),inactive: 3.12%
13,Oc1ccccc1CNc1ccccn1,inactive: -5%
14,O=C(NC(Sc1ccncn1)C(Cl)(Cl)Cl)c1ccccc1 (stereo unspecified),inactive: 0.16%
15,NC(=O)c1cc([N+](=O)[O-])cc([N+](=O)[O-])c1N,inactive: 1.32%
16,CN(C(=O)Cc1ccc(Cl)c(Cl)c1)[C@H]1CCCC[C@H]1N1CCCC1,inactive: 1.69%
17,Cc1ccc(N/C(=N/P(=O)(N2CCOCC2)N2CCOCC2)N2CCOCC2)cc1,inactive: 1.4%
18,COc1ccccc1OP(=O)(Nc1ccc(C)cn1)Oc1ccccc1OC,inactive: -2.33%
19,Cc1ccc(OP(=O)(Nc2nccs2)Oc2ccc(C)cc2)cc1,inactive: -3.74%
20,CN1CCCC(OC(=O)C(c2ccccc2)c2ccccc2)C1 (stereo unspecified),inactive: 5.16%
21,Clc1ccc(Cl)c(NC2=NCC(CBr)S2)c1 (stereo unspecified),inactive: -0.61%
22,CC(=O)c1ccc(N2CC2c2ccncc2)cc1 (stereo unspecified),inactive: 0.2%

row,Structure (SMILES),response
1,N#C/C(=C\c1ccc(N(CCBr)CCBr)cc1)C(N)=O,inactive: 1.39%
2,COC(=O)C1(C)COP(=O)(NCc2ccccc2)OC1 (stereo unspecified),inactive: 1.31%
3,Cc1ccccc1CN(C)C(=O)COC(=O)C(O)(c1ccccc1)c1ccccc1,inactive: -1.64%
4,C[C@H]1OP(=O)(Oc2ccccc2)C[C@@H]2O[C@@H]21 (stereo partly specified),inactive: 0.23%
5,C[C@@H]1C=CCP(=O)(Oc2ccccc2)O1 (stereo partly specified),inactive: 1.28%
6,CC(=O)Nc1ccc([As](=O)(O)O)c(O)c1,inactive: -2.21%
7,CC(=O)Nc1ccc(Oc2c([N+](=O)[O-])cc([N+](=O)[O-])cc2[N+](=O)[O-])cc1,inactive: -0.83%
8,O=P1(Nc2nc3ccc(Cl)cc3s2)COc2ccccc2O1 (stereo unspecified),inactive: 3.81%
9,CCOc1ccc(C2=NCC(CBr)S2)cc1 (stereo unspecified),inactive: 0.11%
10,CCc1cc(O)c([N+](=O)[O-])c(C)c1[N+](=O)[O-],inactive: 0.97%
11,CC(C)(C)C(=O)NC(Sc1ccccc1)C(Cl)(Cl)Cl (stereo unspecified),inactive: 0.8%
12,COC(=O)c1cc2c(s1)N=C(c1ccccc1)N(C)P2(=O)N1CCOCC1 (stereo unspecified),inactive: -2.66%
13,CC(=O)NC(SC(=S)N(CC(C)C)CC(C)C)C(Cl)(Cl)Cl (stereo unspecified),inactive: 3.07%
14,Cc1ccc(OP(=O)(Nc2ccccn2)Oc2ccc(C)cc2)cc1,inactive: -0.74%
15,O=C(OC1CN2CCC1CC2)c1ccccc1 (stereo unspecified),inactive: -1%
16,CCC(=O)N1C2C3N(C(=O)CC)C1C1N(C(=O)CC)C(C(N1C(=O)CC)N3C(=O)CC)N2C(=O)CC,inactive: -1.47%
17,CC(NC(=O)COC(=O)C(O)(c1ccccc1)c1ccccc1)c1ccccc1 (stereo unspecified),inactive: -2.97%
18,Cc1ccccc1OP(=O)(Nc1ccccn1)Oc1ccccc1C,inactive: -1.72%
19,O=c1c2cc([N+](=O)[O-])ccc2[nH]c2c([N+](=O)[O-])cc([N+](=O)[O-])cc12,inactive: 2.01%
20,CN(C)C(=O)Oc1noc2ccccc12,inactive: 0.75%
21,CCNC(=S)/N=C(\N)N[N+](=O)[O-],inactive: 0.6%
22,O=C(NC1CCS(=O)(=O)C1)NP(=S)(Oc1ccccc1)Oc1ccccc1 (stereo unspecified),inactive: 0.91%

row,Structure (SMILES),response
1,c1ccc(-c2nn[nH]n2)c(-c2nn[nH]n2)c1,inactive: -0.42%
2,Cc1ccc(NP(=O)(Oc2cccc(C)c2)Oc2cccc(C)c2)nc1,inactive: -1.9%
3,O=P1(N(CCCl)CCCl)OCCC2CCCCN21 (stereo unspecified),inactive: 2.09%
4,O=[N+]([O-])c1ccc(O)c(/C=N/Nc2ccc([N+](=O)[O-])cc2[N+](=O)[O-])c1,inactive: 1.36%
5,CC(=O)NC(SC(=S)N(C)C)C(Cl)(Cl)Cl (stereo unspecified),inactive: -3.78%
6,O=[N+]([O-])c1ncn(CCn2cnc([N+](=O)[O-])n2)n1,inactive: -1.56%
7,O=[As](O)(c1ccccc1)c1ccc(O)cc1,inactive: 1.06%
8,C(Cc1nn[nH]n1)Cc1nn[nH]n1,inactive: 1.31%
9,Nc1ccc([As](=O)(O)c2ccc([N+](=O)[O-])cc2)cc1,inactive: -1.78%
10,O=C(OC1CN2CCC1CC2)c1cccc(Cl)c1 (stereo unspecified),inactive: -2.65%
11,COc1ccc(N)c([N+](=O)[O-])c1[N+](=O)[O-],inactive: 0.16%
12,O=P(Nc1ccccn1)(c1ccc(Br)cc1)c1ccc(Br)cc1,active: 10.8%
13,CN(C)C1(CNC(=O)c2ccc(Cl)c(S(N)(=O)=O)c2)CCCCC1,inactive: 0.19%
14,O=P(Nc1nc2ccccc2s1)(c1ccccc1)c1ccccc1,inactive: 3.3%
15,C[C@H]1OP(=O)(Oc2ccccc2)[C@H](O)[C@H](O)[C@H]1N=[N+]=[N-] (stereo partly specified),inactive: -0.34%
16,CC(C)C(=O)NC(Sc1ccccc1)C(Cl)(Cl)Cl (stereo unspecified),inactive: 2%
17,O=P(Nc1nccs1)(c1ccccc1)c1ccccc1,inactive: 1.79%
18,c1nnnn1CCn1cnnn1,inactive: 2.21%
